The results in this text go back to ChEMBL document CHEMBL2346555, “Efficacious cyclic N-acyl O-amino phenol duocarmycin prodrugs” (J Med Chem, 2013).

Data set [1] relates to Plasma. Kind of data set: Half life in human plasma.
Data set [2] can be described thus: Half life of the compound in phosphate buffer at pH 7.

For `O=C(Nc1ccc2[nH]c(C(=O)N3C[C@@H](CCl)c4c3cc3c5c(cccc45)C(=O)NO3)cc2c1)c1cc2ccccc2[nH]1`, the t1/2 in data set [1] was 96 h; in data set [2] it was 168 h.
